Assay results taken from patent publication US20210340500A1, “METHOD FOR PRODUCING INTESTINAL CELLS FROM PLURIPOTENT STEM CELLS” (TOKYO INSTITUTE OF TECHNOLOGY, priority 2018, published 2021).

Tested on: BCRP and P-gp
Conditions: 20 μM elacridar

SMILES: COc1cc2c(cc1OC)CN(CCc1ccc(NC(=O)c3cccc4c(=O)c5cccc(OC)c5[nH]c34)cc1)CC2 [elacridar]
- effect of inhibitor on directional transport of prazosin: the B-to-A transport of prazosin was decreased but the A-to-B transport was increased
